Reference: patent US20030135023A1, “Peptide structures useful for competitive modulation of dipeptidyl peptidase IV catalysis” (priority 2001, published 2003)

The chains behind the UniProt entries cited, without tags or fusion partners. Where a name states a change or a piece, a line headed by the entry shows the natural chain unless it says otherwise. Residues count along the entry.
UniProt P22411: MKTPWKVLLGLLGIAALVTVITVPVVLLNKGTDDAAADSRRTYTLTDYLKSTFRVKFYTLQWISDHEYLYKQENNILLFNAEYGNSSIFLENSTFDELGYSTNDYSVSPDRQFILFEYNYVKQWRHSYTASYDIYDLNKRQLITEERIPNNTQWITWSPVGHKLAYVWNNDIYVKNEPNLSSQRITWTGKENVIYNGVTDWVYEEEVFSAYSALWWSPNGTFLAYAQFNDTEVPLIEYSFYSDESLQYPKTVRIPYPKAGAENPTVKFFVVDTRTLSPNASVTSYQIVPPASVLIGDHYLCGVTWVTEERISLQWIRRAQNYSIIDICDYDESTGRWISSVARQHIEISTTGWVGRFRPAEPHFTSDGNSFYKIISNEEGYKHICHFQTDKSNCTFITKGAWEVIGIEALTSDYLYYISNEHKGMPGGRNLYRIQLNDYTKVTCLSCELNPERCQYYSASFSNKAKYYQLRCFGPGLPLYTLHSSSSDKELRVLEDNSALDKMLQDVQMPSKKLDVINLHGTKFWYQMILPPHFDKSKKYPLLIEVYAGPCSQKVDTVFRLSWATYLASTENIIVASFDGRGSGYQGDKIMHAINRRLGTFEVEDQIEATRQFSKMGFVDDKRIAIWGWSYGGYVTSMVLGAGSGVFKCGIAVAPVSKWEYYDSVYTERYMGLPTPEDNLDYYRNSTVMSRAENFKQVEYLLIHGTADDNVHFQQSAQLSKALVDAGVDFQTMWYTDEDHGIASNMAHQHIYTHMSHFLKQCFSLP
UniProt P14740, 37-767 limits assumed: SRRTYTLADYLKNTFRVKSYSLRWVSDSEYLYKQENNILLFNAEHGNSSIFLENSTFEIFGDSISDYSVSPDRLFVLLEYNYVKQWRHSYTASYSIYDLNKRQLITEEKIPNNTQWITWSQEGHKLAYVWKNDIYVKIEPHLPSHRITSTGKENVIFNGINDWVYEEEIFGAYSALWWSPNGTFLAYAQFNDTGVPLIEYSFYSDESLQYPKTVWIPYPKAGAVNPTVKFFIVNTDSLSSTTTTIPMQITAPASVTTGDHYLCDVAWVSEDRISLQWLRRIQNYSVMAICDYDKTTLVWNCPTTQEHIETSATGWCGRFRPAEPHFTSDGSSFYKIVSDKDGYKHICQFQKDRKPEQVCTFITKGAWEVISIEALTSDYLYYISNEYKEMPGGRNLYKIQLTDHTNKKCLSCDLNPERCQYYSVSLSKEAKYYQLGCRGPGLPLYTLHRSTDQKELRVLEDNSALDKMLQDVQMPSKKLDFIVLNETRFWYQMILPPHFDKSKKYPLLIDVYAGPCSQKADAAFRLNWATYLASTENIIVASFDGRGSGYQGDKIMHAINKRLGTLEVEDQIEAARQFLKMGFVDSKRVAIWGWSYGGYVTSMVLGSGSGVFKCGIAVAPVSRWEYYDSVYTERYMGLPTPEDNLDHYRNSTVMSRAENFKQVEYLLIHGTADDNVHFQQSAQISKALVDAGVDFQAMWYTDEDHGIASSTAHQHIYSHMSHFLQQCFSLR

What was measured:
purified porcine DP IV [1] = biological target: T1, purified porcine DP IV (Sus scrofa, UniProt P22411); assay: Determination of Ki-values, Gly-Pro-pNA cleavage by DP IV; assay type: biochemical; conditions: Gly-Pro-pNA 0.05-0.4 mM
Description: (§1) 100 μl inhibitor stock solution were mixed with 100 μl buffer (HEPES pH 7.6) and 50 μl substrate (Gly-Pro-pNA, final concentration 0.4 mM) and preincubated at 30° C. Reaction was started by addition of 20 μl purified porcine DP IV. Formation of the product pNA was measured at 405 nm over 10 min using the HTS 7000 Plus plate reader (Perkin Elmer) and slopes were calculated. The final inhibitor concentrations ranged between 1 mM and 30 nM.
Calculations were performed using the GraFit Software.

purified porcine DP IV [2] = biological target: T1, purified porcine DP IV; assay: Determination of IC50-values, Gly-Pro-pNA cleavage by DP IV; assay type: biochemical; conditions: Gly-Pro-pNA 0.4 mM, HEPES pH 7.6, 30° C.
Description: as §1
For calculation of IC50-values GraFit 4.0.13 (Erithacus Software) was used.

plasma DP IV = biological target: T2, plasma DP IV (Rattus norvegicus, UniProt P14740); assay: Plasma DP IV activity after intravasal and oral administration in Wistar rats; assay type: in vivo; conditions: for DP IV-AUC0-20 min / lowest plasma DP IV activity: NS
T2 construct: The assay mixture consisted of 80 μl reagent and 20 μl plasma; from tissue; host or cells: plasma of Wistar rats
Description: Rats with intact catheter function were given the test substances intravasal (intraarterial) or oral, respectively, in random order (N=3 Wistar rats in each group). As positive control, […]. isoleucine thiazolidine*fumarate were administered intravasal.
After overnight fasting, 100 μl samples of heparinized arterial blood were collected at −30, −5, and 0 min into ice-cooled Eppendorf tubes (see below). The test substances were dissolved freshly in 1.0 ml saline (0.154 mol/l) and were given at 0 min either oral via a feeding tube ([…], 75 mm; Fine Science Tools, Heidelberg, Germany) or intravasal. For the intravasal route, the catheter was immediately flushed with 30 μl saline and an additional 1 ml of saline was given orally via the feeding tube.
Arterial blood samples were taken thereafter at 5, 10 (only in a limited number of experiments), 20, 40, 60 and 120 min from the carotid catheter of the conscious unrestrained rats and were always given into ice cooled Eppendorf tubes (Eppendorf-Netheler-Hinz, Hamburg, Germany) filled with 10 μl 1 M citrate buffer pH 3.0 for prevention of further hydrolysis of tripeptides by plasma DP IV activity. Eppendorf tubes were centrifuged immediately (12000 rpm for 2 min, Hettich Zentrifuge EBA 12, Tuttlingen; Germany): The plasma fractions were store on ice until analysis or were deeply frozen at −20 ° C. until analysis.
Plasma DP IV activity: The assay mixture consisted of 80 μl reagent and 20 μl plasma. Kinetic measurements of the formation of the yellow product 4-nitroaniline were performed at 390 nm for 1 min at 30° C. after 2 min pre-incubation at the same temperature. The activity was expressed as arbitrary units [AU] and DP IV activity [mU/ml].
The absolute values of plasma DP IV activity, the relative change of plasma DP IV activity and the time and extent of maximal inhibition were calculated. Data presentation included the presentation of area under the curve (AUC), which was used for evaluation of extent of inhibition of plasma DP IV activity during the two hours of observation. AUC was calculated using the trapezoidal rule.
To compare relative changes of parameters under the conditions of different initial values of DP IV activity an uniform standardised mean (values) was set up at the beginning of the test (see Figures and Tables).
Statistical evaluations were performed with Microsoft Excel® 97. All variables are presented as mean and standard deviation (SD). Treatment groups were compared by Student's t-test, within-group changes by paired t-test. Two-tailed values of p<0.05 were considered significant.

PEPT1 [3] = biological target: T3, PEPT1 (Homo sapiens, UniProt P46059); assay: Competition assay with transgenic yeast cells, displacement of radiolabeled tracer dipeptide, PEPT1; assay type: binding, mammalian
T3 construct: expressed in transfected cells; host or cells: transgenic yeast cells
T3 sequence (P46059 1-708): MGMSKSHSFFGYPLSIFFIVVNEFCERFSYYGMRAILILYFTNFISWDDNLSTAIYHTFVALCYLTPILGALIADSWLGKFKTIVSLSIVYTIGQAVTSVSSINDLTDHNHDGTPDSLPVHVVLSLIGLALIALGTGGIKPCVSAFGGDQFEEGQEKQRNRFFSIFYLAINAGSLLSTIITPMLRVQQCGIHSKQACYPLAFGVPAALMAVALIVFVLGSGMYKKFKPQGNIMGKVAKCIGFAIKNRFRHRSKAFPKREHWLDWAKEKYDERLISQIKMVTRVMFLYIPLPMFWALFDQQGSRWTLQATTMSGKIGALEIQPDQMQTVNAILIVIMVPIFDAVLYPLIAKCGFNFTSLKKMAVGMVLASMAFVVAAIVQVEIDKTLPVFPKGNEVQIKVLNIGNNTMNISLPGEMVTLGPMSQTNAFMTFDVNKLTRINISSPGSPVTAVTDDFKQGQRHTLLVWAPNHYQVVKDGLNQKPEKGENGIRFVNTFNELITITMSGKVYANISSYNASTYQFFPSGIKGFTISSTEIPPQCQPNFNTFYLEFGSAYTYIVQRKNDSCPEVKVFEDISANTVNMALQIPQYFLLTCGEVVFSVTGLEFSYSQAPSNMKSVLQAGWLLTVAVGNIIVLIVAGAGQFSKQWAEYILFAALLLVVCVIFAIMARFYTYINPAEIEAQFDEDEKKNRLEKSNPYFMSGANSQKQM
Source text: (§2) For the analysis o the interaction of the inhibitors of prolyl-specific proteases with the mammalian peptide transporters two assay systems were used. First, all test compounds were submitted to the competition assay with transgenic yeast cells to determine the dose-dependent displacement (EC50 values) of the radiolabeled tracer dipepitde from the substrate binding site. […] As the level of functional expression varies in oocytes, each test compound was compared in the same oocyte with the current elicited by 5 mM of the dipeptide glycyl-L-glutamine (Gly-Gln). Currents of test compounds are therefore given relative to that by Gly-Gln as %I Gly-Gin, expressed as residual uptake in table 10.

PEPT2 [4] = biological target: T4, PEPT2 (Homo sapiens, UniProt Q16348); assay: Electrophysiological analysis of transport currents in Xenopus oocytes expressing PEPT2; assay type: cell-based, mammalian; conditions: transport current in Xenopus oocytes relative to 5 mM Gly-Gln
T4 construct: expressed in transfected cells; host or cells: transgenic yeast cells
T4 sequence (Q16348 1-729): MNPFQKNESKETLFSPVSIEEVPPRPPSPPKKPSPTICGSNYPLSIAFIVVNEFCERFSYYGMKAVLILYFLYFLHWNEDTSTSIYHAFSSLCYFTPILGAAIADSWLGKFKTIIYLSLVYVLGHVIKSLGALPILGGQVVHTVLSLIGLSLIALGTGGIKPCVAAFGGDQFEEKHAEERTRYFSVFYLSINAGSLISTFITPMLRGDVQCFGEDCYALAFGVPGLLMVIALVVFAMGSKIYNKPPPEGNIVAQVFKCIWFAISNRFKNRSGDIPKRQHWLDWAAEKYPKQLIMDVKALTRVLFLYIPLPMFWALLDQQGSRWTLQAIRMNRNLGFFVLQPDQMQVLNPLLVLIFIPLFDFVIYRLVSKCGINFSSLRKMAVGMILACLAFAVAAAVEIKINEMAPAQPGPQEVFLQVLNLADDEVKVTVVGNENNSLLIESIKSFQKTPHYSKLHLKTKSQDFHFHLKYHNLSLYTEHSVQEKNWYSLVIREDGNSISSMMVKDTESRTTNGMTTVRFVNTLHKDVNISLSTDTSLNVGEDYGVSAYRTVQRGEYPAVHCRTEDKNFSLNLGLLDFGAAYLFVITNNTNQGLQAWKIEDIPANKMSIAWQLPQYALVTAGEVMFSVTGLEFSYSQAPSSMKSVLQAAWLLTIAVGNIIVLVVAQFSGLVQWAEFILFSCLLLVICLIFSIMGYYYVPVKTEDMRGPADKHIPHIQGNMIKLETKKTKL
Source text: as §2

PEPT1 [5] = biological target: T3, PEPT1; assay: Electrophysiological analysis of transport currents in Xenopus oocytes expressing PEPT1; assay type: cell-based, mammalian; conditions: transport current in Xenopus oocytes relative to 5 mM Gly-Gln
Source text: as §2

PEPT2 [6] = biological target: T4, PEPT2; assay: Competition assay with transgenic yeast cells, displacement of radiolabeled tracer dipeptide, PEPT2; assay type: binding, mammalian
Source text: as §2

CC(C)[C@H](N)C(=O)N1CCC[C@H]1C(=O)N[C@H](C(=O)O)C(C)C [Val-Pro-Val]
Ki (purified porcine DP IV [1]): 4.45 µM
IC50 (purified porcine DP IV [2]): 16.4 µM

CC[C@H](C)[C@H](NC(=O)[C@@H]1CCCN1C(=O)[C@@H](N)Cc1ccccc1)C(=O)O [Phe−Pro-Ile, Phe-Pro-Ile]
Ki (purified porcine DP IV [1]): 14.7 µM
IC50 (purified porcine DP IV [2]): 62 µM

CC[C@H](C)[C@H](NC(=O)[C@@H]1CCCN1C(=O)[C@@H](N)[C@@H](C)O)C(=O)O [Thr-Pro-Ile]
IC50 (purified porcine DP IV [2]): 100 µM

CC(C)C[C@H](NC(=O)[C@@H]1CCCN1C(=O)[C@@H](N)C(C)C)C(=O)O [Diprotin B, Val-Pro-Leu]
Ki (purified porcine DP IV [1]): 22.4 µM
DP IV-AUC0-20 min (plasma DP IV; intravasal 10 mg/kg b.w.): −34±6 mU·min·ml^−1
lowest plasma DP IV activity (plasma DP IV; intravasal 10 mg/kg b.w., at 5 min): 26.2±8.0 mU/ml
DP IV-AUC0-20 min (plasma DP IV; intravasal 30 mg/kg b.w.): −10±10 mU·min·ml^−1
lowest plasma DP IV activity (plasma DP IV; intravasal 30 mg/kg): 21.8±9.8 mU/ml
DP IV-AUC0-20 min (plasma DP IV; intravasal 100 mg/kg b.w.): −54±54 mU·min·ml^−1
plasma DP IV activity at 5 min (plasma DP IV; intravasal 100 mg/kg b.w., p<0.05 vs. 0 min): 10.4±3.2 mU/ml
time after administration at which the initial level of DP IV activity was restored / inhibition stopped (plasma DP IV; intravasal administration): 20 min
inhibition at 100 mg/kg (plasma DP IV; rat, iv, Wistar rats, i.v., 100 mg/kg, read-out: DPIV inhibition at tmax, i.v.): 50%
IC50 (purified porcine DP IV [2]): 55.4 µM

CC[C@H](C)[C@H](N)C(=O)N1CCC[C@H]1C(=O)N[C@H](C(=O)O)C(C)C [Ile−Pro-Val, Ile-Pro-Val]
EC50 (PEPT1 [3]): 319 ± 40 µM
PEPT2 Residual uptake % IGly-Gln (PEPT2 [4]): 200 % IGly-Gln
PEPT1 Residual uptake % IGly-Gln (PEPT1 [5]): 65 % IGly-Gln
Ki (purified porcine DP IV [1]): 5.25 µM
EC50 (PEPT2 [6]): 172 ± 30 µM
IC50 (purified porcine DP IV [2]): 15.2 µM

CC[C@H](C)[C@H](NC(=O)[C@@H]1CCCN1C(=O)[C@@H](N)Cc1c[nH]c2ccccc12)C(=O)O [Trp-Pro-Ile]
IC50 (purified porcine DP IV [2]): 317 µM

CC[C@H](C)[C@H](NC(=O)[C@@H]1CCCN1C(=O)[C@@H](N)CO)C(=O)O [Ser-Pro-Ile]
IC50 (purified porcine DP IV [2]): 281 µM
